“Also recorded” adds a separate entry of the source.
Assays:
[1] = molecular target: T1, LH/CG receptor (Rattus norvegicus, UniProt P16235); test: ^125I-CG binding to intact 293 cells transiently transfected with LH/CG receptor cDNA (pCLHR); settings: for hormone binding to the expressed LH/CG receptor: transfected 293 cells
T1 construct: introducing the entire coding region of the cloned cDNA and additional flanking regions contained on an Eco R1 fragment; expressed in transfected cells; host or cells: human kidney 293 cells (ATCC CRL1573), transient transfection with pCLHR
Procedure: (§1) Exponentially growing 293 cells were transiently transfected (C. Chen et al., Mol. Cell. Biol. 7:2745 (1987)) with PCLHR. 42h after transfection, intact cells were assayed for ^125I-CG binding (FIG. 4A) or CG-stimulated CAMP production (FIG. 4B).
For the assay of ^125I-CG binding (FIG. 4A), each dish was washed 4 times with 3 ml of warm Waymouth MB75211 medium lacking sodium bicarbonate and containing 20 mM Hepes and 1 mg/ml bovine serum albumin and then placed in 2 ml of the same. After 2 hours at 4° C., aliquots of highly purified CG (CR-123, 12,780 IU/mg) iodinated as described by I.-C. Kim et al. (J. Biol. Chem. 261:3807 (1986)) were added alone or together with 50 IU crude CG (for the determination of non-specific binding). After 24 hours at 4° C., the binding media and cells were transferred to plastic tubes on ice. The cells were centrifuged, washed once with 2 ml cold 150 mM NaCl, 20 mM Hepes containing 1 mg/ml bovine serum albumin, and centrifuged. Cell pellets were counted in a gamma counter.

By UniProt entry, the sequences of proteins in these tests, tags left out. Residues count along the entry.
UniProt P16235, 27-700: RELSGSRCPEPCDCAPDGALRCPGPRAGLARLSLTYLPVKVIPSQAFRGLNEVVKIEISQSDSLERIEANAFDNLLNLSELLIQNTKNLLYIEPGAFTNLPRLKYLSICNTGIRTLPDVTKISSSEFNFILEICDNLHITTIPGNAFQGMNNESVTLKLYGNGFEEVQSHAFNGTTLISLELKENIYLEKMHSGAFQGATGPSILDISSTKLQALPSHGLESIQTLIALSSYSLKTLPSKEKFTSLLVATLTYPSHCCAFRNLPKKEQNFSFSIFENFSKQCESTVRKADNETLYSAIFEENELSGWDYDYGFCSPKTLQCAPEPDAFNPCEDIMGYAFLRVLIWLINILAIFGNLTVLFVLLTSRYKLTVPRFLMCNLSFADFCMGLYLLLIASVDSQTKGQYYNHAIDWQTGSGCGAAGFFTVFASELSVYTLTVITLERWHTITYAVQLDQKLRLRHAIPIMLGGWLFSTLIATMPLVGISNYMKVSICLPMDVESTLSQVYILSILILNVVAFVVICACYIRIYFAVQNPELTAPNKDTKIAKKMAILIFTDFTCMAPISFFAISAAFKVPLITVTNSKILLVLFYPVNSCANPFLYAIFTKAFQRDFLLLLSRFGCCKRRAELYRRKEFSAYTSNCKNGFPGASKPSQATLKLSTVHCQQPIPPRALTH

[2] = molecular target: T1, LH/CG receptor; test: CG-stimulated cAMP production in 293 cells transiently transfected with LH/CG receptor cDNA (pCLHR); format: cell-based; settings: for stimulation of cAMP production via the expressed LH/CG receptor: transfected 293 cells
Procedure: as §1
For the determination of CG-stimulated CAMP production (FIG. 4B), each dish was washed 4 times with 3 ml warm Waymouth MB752/1 medium containing 1 mg/ml bovine serum albumin and placed in 2 ml of the same containing 0.5 mM 3-isobutyl-1-methylxanthine. After a 15 min preincubation at 37° C., aliquots of highly purified CG were added and the incubation was continued for 30 min at 37° C. After removing the assay media, the cells were collected in 1.5 ml cold 1 N perchloric acid containing 1 mg/ml theophylline. Cells were lysed by rapid freezing and thawing and then centrifuged. The supernatants were neutralized and then assayed for CAMP as previously described (D. L. Segaloff et al., J. Biol. Chem. 256:11420 (1981)).

[3] = molecular target: T2, FSH-R (Rattus norvegicus, UniProt P20395); test: Hormone-stimulated cAMP production in 293 cells transiently transfected with pCFSH-R; format: cell-based; settings: for cAMP: hormone 25 nM, 30 min of hormonal stimulation, FSH-R expressing 293 cells
T2 construct: introducing the entire coding region of the cloned cDNA contained on an EcoRi-Bam HI fragment; expressed in transfected cells; host or cells: human embryonic kidney 293 cells (ATCC CRL 1573), transient transfection with pCFSH-R
T2 sequence (P20395 18-692): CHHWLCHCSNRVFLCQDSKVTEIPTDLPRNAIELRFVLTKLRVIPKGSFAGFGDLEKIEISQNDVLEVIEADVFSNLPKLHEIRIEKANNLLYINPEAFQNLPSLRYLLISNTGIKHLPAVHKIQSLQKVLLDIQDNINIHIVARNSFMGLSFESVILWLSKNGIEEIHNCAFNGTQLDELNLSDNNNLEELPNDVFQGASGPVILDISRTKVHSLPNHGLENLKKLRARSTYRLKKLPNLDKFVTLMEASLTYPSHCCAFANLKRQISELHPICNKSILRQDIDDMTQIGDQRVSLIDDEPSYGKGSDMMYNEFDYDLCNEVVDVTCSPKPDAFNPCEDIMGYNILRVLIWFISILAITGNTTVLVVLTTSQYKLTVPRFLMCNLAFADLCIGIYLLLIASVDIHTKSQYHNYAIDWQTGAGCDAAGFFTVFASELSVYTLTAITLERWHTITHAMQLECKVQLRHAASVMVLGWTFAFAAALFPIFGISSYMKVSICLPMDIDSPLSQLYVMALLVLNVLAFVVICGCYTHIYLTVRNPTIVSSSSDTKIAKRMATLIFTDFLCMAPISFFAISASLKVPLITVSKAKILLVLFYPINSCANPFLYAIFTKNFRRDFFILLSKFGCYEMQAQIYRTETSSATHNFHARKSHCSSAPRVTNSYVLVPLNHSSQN
Procedure: The expression vector pCFSH-R was constructed by introducing the entire coding region of the cloned cDNA contained on an EcoRi-Bam HI fragment (nucleotides—77 to 2095) into the PCIS vector (C. M. Gorman et al., Virology, 171:377-385 (1989)). Exponentially growing human embryonic kidney cells 293 (ATCC CRL 1573) in 34 mm dishes were transfected with this expression vector (C. Chen and H. Okayama, Mol. Cell. Biol., 7:2745-2751 (1987)). After 42 hr intact cells were assayed for hormone-stimulated CAMP production. Each dish was washed once with 3 ml of warm DMEM medium containing 10% fetal calf serum and placed in 1 ml of the serum-free DMEM-medium buffered with 25 mM HEPES pH 7.4 containing 0.1 mM 34sobutyl-1-methylxanthine. After a 15-minute incubation period at 37° C., highly purified glycoprotein hormone (OFSH, hTSH, or hCG) was added and the incubation was continued for 30 min at 37° C. The assay was stopped by rapid freezing and thawing of the cells in liquid nitrogen and then 1.2 ml cold ethanol was added to each dish. The cell debris and precipitated protein were removed by centrifugation (10 min; 13,000×g) and 5 μl or 50 μL of the supernatant was assayed for CAMP using an Amersham kit.

| Substance | hormone binding to the expressed LH/CG receptor [1] | stimulation of cAMP production via the expressed LH/CG receptor [2] | EC50 ([2]; transfected human kidney 293 cells, read-out: EC50 of CG for increased cAMP production) [nM] | cAMP response in FSH-R expressing cells ([3]; concentrations up to 25 nM) | cAMP [3] [pmoles/10^6 cells] | Kd ([1]; transfected human kidney 293 cells, intact cells) [nM] |
| --- | --- | --- | --- | --- | --- | --- |
| CG: highly purified human choriogonadotropin (CR-123, 12,780 IU/mg), glycoprotein hormone | bind with high affinity | stimulate CAMP production; also recorded: concentration-dependent and saturable increase in intracellular CAMP | 0.04 to 0.08 | did not evoke a CAMP response | 7.6 |  |
| ^125I-CG: highly purified CG (CR-123) iodinated with 125I, radioligand [reference compound] | specifically bound hormone in a concentration-dependent and saturable manner |  |  |  |  | 0.08 to 0.16 |
| hFSH: follicle stimulating hormone (hFSH), glycoprotein hormone | not | not |  |  |  |  |
| hTSH: highly purified thyroid stimulating hormone (NIDDK-hTSH-1-6; 17 IU/mg) | not | not |  |  | 12.0 |  |

From patent publication US20020061557A1, “Glycoprotein hormone receptor molecules” (Genentech, Inc., priority 1989, published 2002)
